This passage reports IC50 results from patent publication US10532995B2, “Substituted pyrazole compounds as serine protease inhibitors” (VERSEON CORPORATION, priority 2015, dated 2020).

By UniProt entry, the sequences of proteins in these tests, tags left out. Residues count along the entry.
UniProt P03951, 388-625 limits assumed: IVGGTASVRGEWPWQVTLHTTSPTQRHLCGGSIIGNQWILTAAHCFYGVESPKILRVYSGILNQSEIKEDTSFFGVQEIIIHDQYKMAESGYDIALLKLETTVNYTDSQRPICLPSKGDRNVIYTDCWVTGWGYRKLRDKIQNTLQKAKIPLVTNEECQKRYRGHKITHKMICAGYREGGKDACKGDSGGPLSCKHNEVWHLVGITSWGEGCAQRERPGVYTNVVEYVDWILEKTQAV
UniProt P03951, 19-387 partner limits assumed: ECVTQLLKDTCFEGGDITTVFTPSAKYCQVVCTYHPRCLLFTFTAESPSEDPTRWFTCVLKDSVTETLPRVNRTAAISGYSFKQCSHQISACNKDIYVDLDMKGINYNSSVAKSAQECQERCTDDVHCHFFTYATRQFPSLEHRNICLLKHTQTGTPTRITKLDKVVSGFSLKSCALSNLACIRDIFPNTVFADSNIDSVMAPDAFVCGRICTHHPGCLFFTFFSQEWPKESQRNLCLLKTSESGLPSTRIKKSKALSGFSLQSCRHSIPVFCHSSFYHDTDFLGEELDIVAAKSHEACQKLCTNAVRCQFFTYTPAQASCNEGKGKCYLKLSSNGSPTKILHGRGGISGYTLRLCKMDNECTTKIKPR

The structures appear in SMILES notation.

The subject of test [1] is Human pancreas a-chymotrypsin. The experiment in a line: Chymotrypsin activity inhibition, chromogenic substrate S-7388. The format is biochemical. As to conditions: read-out: Chymotrypsin Inhibition; 250 uM S-7388, 10 min pre-incubation, RT.
A further test addresses Human Factor XIa (Homo sapiens, UniProt P03951). The experiment in a line: Factor XIa activity inhibition, chromogenic substrate S-2366. The following applies: read-out: Factor XIa Inhibition; S-2366, 10 min pre-incubation, RT.

Turning to `CC(C)(C)OC(=O)N1CCC(C)(c2cc(NCc3ccc(Cl)s3)n(C(=O)C(C)(C)C)n2)CC1` [Entry 291, tert-butyl 4-(5-[(5-chlorothiophen-2-yl)methyl]amino-1-(2,2-dimethylpropanoyl)-1H-pyrazol-3-yl)-4-methylpiperidine-1-carboxylate], the IC50 in test [1] was 10 to 100 µM; on Human Factor XIa it was over 100 µM.
Turning to `COCC(C)(C)C(=O)n1nc(C2CCNCC2)cc1NCc1ccc(Cl)s1`, the values for the IC50 (in test [1]; on Human Factor XIa) were over 100 µM and 10 to 100 µM, respectively.
The corresponding values for `CC(C)(CO)C(=O)n1nc(C2CCNCC2)cc1NCc1ccc(Cl)s1` are 1 to 10 µM and 10 to 100 µM.
For `CC(C)(C)OC(=O)N1CCC(c2cc(NCc3ccc(Cl)s3)n(C(=O)C(C)(C)C)n2)CC1` [Entry 292, tert-butyl 4-(5-[(5-chlorothiophen-2-yl)methyl]amino-1-(2,2-dimethylpropanoyl)-1H-pyrazol-3-yl)piperidine-1-carboxylate], the IC50 (in test [1]; on Human Factor XIa) was over 100 µM throughout.
With `CC(C)(C)C(=O)n1nc(C2CCN(CC(F)(F)F)CC2)cc1NCc1ccc(Cl)s1`, the IC50 (in test [1]; at Human Factor XIa) was over 100 µM in each case.
Turning to `CC(C)(C)C(=O)n1nc(C2CCNCC2)cc1NCc1ccc(Cl)s1`, the IC50 (in test [1]; at Human Factor XIa) was 10 to 100 µM throughout.
